These results are taken from patent publication US20030032580A1, “Use of agonists or antagonists of the 5-HT7 receptor to treat disorders of the bladder” (Synaptic Pharmaceutical Corporation, priority 1999, published 2003).

Amino acid sequences for entries named in this document (tags omitted).
UniProt P30994, whole entry: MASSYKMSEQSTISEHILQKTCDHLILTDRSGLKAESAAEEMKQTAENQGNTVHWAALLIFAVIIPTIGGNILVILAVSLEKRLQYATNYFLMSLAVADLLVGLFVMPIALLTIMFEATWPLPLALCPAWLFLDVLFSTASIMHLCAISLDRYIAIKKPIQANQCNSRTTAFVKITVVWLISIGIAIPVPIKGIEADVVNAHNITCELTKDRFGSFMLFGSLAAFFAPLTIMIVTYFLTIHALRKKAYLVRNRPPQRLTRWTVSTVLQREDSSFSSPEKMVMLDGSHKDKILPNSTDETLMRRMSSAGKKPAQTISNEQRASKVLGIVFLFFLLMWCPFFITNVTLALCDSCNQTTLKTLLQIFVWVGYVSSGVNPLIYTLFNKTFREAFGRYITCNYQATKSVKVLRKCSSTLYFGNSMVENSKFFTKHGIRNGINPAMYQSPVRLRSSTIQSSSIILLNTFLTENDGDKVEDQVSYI
UniProt P32305, whole entry: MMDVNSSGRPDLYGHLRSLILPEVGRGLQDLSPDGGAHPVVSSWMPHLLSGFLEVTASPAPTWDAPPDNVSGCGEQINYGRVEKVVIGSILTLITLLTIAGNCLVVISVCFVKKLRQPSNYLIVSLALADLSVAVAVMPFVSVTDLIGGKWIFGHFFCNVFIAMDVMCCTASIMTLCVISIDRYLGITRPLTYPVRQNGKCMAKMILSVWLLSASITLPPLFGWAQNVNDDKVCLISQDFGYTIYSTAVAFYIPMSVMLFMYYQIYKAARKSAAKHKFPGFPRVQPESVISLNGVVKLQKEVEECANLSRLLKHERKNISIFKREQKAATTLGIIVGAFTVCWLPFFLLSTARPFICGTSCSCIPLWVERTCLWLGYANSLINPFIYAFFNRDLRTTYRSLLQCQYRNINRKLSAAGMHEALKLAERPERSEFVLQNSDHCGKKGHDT

Test [1] deals with cloned rat 5-HT2B receptor (Rattus norvegicus, UniProt P30994). The conditions noted are these: cited from earlier work; for pKB, 5-HT2B: Wainscott et al., 1993.
For test [2], the target named is 5-HT2B receptor (second phase of the concentration-effect curve to 5-CT in the rat bladder) (Rattus norvegicus, UniProt P30994). The experiment in a line: Electrically stimulated rat bladder strips: second (low potency) phase of the concentration-effect curve to 5-CT.
The target of test [3] is 5-HT7 receptor (first phase of the concentration-effect curve to 5-CT in the rat bladder) (Rattus norvegicus, UniProt P32305). Briefly: Electrically stimulated rat bladder strips: first (high potency) phase of the concentration-effect curve to 5-CT.
Another test deals with 5-HT7. Particulars: Hoyer et al., 1994; cited from earlier work.
Test [4] concerns the target cloned rat 5-HT7 receptor (Rattus norvegicus, UniProt P32305). Particulars: references 2 and 3; cited from earlier work.

With `CN1C[C@@H](NS(=O)(=O)N(C)C)C[C@@H]2c3cccc4c3c(cn4C)C[C@H]21` [mesulergine], the “pKB, 5-HT2B” value in test [1] is 7.4-7.8. Besides, the pK1 in test [1] (cloned rat 5-HT2B receptor, reference 1 (Wainscott et al., 1993)) is 7.4-7.8. The same molecule gave a Kb in test [2] of 39.8 nM.
As to `CSc1ccc2c(c1)C(N1CCN(C)CC1)Cc1ccccc1S2` (stereo not drawn) [methiothepin], the “first-phase affinity greater than that for the 5-HT7, subtype” value in test [3] (bladder pKB versus published value (Hoyer et al., 1994)) was determined as 40 fold. Also, in test [3] (bladder pKB versus published values), the “first-phase affinity greater than that for 5-HT1A, 5-HT1B, 5-HT1D, 5-HT1E, 5-HT1F and 5-HT5A subtypes” value is on record as “at least 100 fold”. Moreover, the pKB (as a rule, −log10 of the KB, conventionally taken in molar units) in test [3] (inhibition of the first phase of the concentration-effect curve to 5-CT in the rat bladder, antagonists tested in the presence of 0.1 μM 1-NP) worked out at 9.4. In the test on 5-HT7, the “pKB, 5-HT7, subtype” value is reported as 7.8. Further, in test [4], the pK1 is 9.4.
As for `O=C(CCCN1CCC2(CC1)C(=O)NCN2c1ccccc1)c1ccc(F)cc1` [spiperone], the “pKB, 5-HT2B” value in test [1] is reported as 5.5.
